Target: T1, ALKBH5 (Homo sapiens, UniProt Q6P6C2)
T1 construct: pNIC28-Bsa4 ALKBH5 (encompassing residues 66-292); made in house; host or cells: E. coli BL21 (DE3) Rosetta T1R
Test: Differential scanning fluorimetry (DSF)-based binding assay, ALKBH5
Conditions: read-out: Tm shift (ALKBH5)
Experimental: Superdex-200 column (GE Healthcare) pre-equilibrated with 20 mM HEPES, pH 7.5, 300 mM NaCl, 10% (v/v) glycerol, 0.5 mM TCEP. […]
∆N31-FTO in complex with 12, 16, and 21 contained 100 mM Sodium Citrate, pH 5.6, 10% w/v polyethylene glycol (PEG) 3350, 10% t-butanol. […]
solution diluted to 22% glycerol and flash frozen in liquid nitrogen. Crystals of ∆N31-FTO in complex with 21 were screened on PXIII beamline at the Swiss Light Source. ∆N31-FTO in complex with 12 and 16 were screened on PXI beamline at the Swiss Light Source. […]
Differential scanning fluorimetry (DSF)-based binding assay
DSF-based binding assay was performed using a MiniOpticon™ Real-Time PCR Detection System (Bio-Rad), monitoring protein unfolding using SYPRO orange (Invitrogen) according to the reported method.[16] FAM (492 nm) and ROX (610 nm) filters were used for excitation and emission respectively. […]
mix. Fluorescence readings were taken every 1°C in the range 25-95°C, with the temperature increased linearly by 1°C min -1. […] The inflection point, representing Tm, was calculated by fitting the Boltzmann equation to the sigmoidal curves obtained; data were processed using GraphPad Prism 6.0™.
The Tm shift caused by the addition of small molecules/ fragments was determined by subtraction of the “reference” Tm (protein incubated with metal and 1% v/v DMSO) from the Tm obtained in the presence of the compound. […]

Chains of the proteins cited; added tags and fusions are not shown. Residues count along the entry.
UniProt Q6P6C2, 66-292: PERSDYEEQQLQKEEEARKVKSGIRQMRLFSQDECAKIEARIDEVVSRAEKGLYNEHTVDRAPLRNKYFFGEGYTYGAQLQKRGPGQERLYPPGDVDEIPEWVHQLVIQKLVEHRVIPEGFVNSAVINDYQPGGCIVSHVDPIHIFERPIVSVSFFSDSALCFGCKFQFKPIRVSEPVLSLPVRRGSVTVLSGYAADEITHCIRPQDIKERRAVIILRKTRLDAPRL

O=C(O)CNC(=O)C(=O)O [NOG, N-oxalylglycine, reference compound] gave a ΔTm at 100 µM of 2.1 °C.

Reference: publication PMC5424463, “A strategy based on nucleotide specificity leads to a subfamily-selective and cell-active inhibitor of N ^6-methyladenosine demethylase FTO” (Chemical Science, 2014)
